# This is a selection; strong and weak results do not stand in their true shares. Some results for these compounds are left out of this collection, so the calls shown say nothing about other tests. Calls of active or inactive are those of the source.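 Rule for the calls: active = Every replicate reaches about 75%, or at least half do and their mean reaches it too (limit read from the data); inconclusive = At least half of replicates reach the limit but their mean does not; inactive = Under half of replicates reach the limit.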
# Assay: inhibitors of cytokine-induced beta cell apoptosis, primary screen, luminescence (AID 435005);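 note: 0% = cytokine-treated negative control wells and 100% = positive control rescue; higher means more ATP so stronger rescue from cytokine killing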
# Settings: INS-1E cytokine-induced death, ATP luminescence, 48 h; active compounds read high; percent of positive-control rescue, neutral wells zero; concentration not given here
row,Compound,protection from apoptosis
1,COc1ccc(Br)c(C(=O)NCC2(N3CCCCC3)CCCCC2)c1,inactive: 1.99%
2,CC(C)Oc1ccc(C(=O)NCC2(N(C)C)CCCCC2)cc1,inactive: -4.98%
3,CN(C)c1cccc(C(=O)NCC2(N(C)C)CCCCC2)c1,inactive: -2.85%
4,O=C(OC1CN2CCC1CC2)C(CO)(c1ccccc1)c1ccccc1 (configuration not stated),inactive: -26.6%
5,COc1ccc(Cl)cc1C(=O)NCC1(N(C)C)CCCCC1,inactive: -9.59%
6,COc1cccc(C(=O)NCC2(N3CCCCC3)CCCCC2)c1,inactive: -2.11%
7,O=C(NCC1(N2CCCCC2)CCCCC1)c1cccc(Cl)c1,inactive: -2.86%
8,CN(C)C1(CNC(=O)c2ccc(Br)cc2)CCCCC1,inactive: 0.912%
9,O=C(NCC1(N2CCCCC2)CCCCC1)c1cc(F)c(F)cc1Cl,inactive: 3.07%
10,C=CCN1CCN(CCOC(=O)C(O)(c2ccccc2)c2ccccc2)CC1,inactive: -12%
11,COc1ccc(C(=O)NCC2(N(C)C)CCCCC2)cc1,inactive: -4.05%
12,O=C(NCC1(N2CCCCC2)CCCCC1)c1cccc(Br)c1,inactive: -0.0997%
13,Cc1cc(C(=O)NCC2(N3CCCCC3)CCCCC2)ccc1[N+](=O)[O-],inactive: -3.56%
14,CN(C)c1ccc(C(=O)NCC2(N(C)C)CCCCC2)cc1,inactive: -5.66%
15,CN(C)C1CCCC1OC(=O)C(O)(c1ccccc1)c1ccccc1 (configuration not stated),inactive: -4.31%
16,Cc1ccccc1C(=O)NCC1(N2CCCCC2)CCCCC1,inactive: 3.1%
17,COc1cc(SC)ccc1C(=O)NCC1(N(C)C)CCCCC1,inactive: -2.13%
18,CCN(CC)CC(C)C(C)OC(=O)C(O)(c1ccccc1)c1ccccc1 (configuration not stated),inactive: -0.981%
19,CC(C)N1C(=O)CC2(CCN(CCOC(=O)C(O)(c3ccccc3)c3ccccc3)CC2)C1=O,inactive: -2.21%
20,Cc1ccc(C(=O)NCC2(N3CCCCC3)CCCCC2)cc1,inactive: -7.28%
21,O=C(NCC1(N2CCCCC2)CCCCC1)c1cc([N+](=O)[O-])ccc1Cl,inactive: -1.34%
22,CN1[C@@H]2CC[C@H]1CC(OC(=O)C(O)(c1ccccc1)c1ccccc1)C2 (some centres not stated),inactive: -7.9%

# Source: PubChem BioAssay AID435005 (Broad Institute, 2010)
